One substance from patent US20080008773A1, “Food beverage or feed for the promotion of osteogenesis comprising umbelliferae, liliaceae or compositae plant species” (priority 2002, published 2008) can be followed below.

For this data set, the system named is C3H10T1/2. Kind of data set: Induction of differentiation of C3H10T1/2 cells into osteoblasts by water extract and recombinant human BMP-2 (synergistic effects). The class given is cell-based, Mouse. The note with it: for Alkaline Phosphatase Activity (%): 11 days. The method, then: (1) Mouse interstitial cell strain ST-2 was suspended in DMEM medium (manufactured by Bio Whittaker) containing 10% fetal bovine serum (manufactured by Bio Whittaker) so as to have a concentration of 3×10^4 cells/ml. The suspension was put to a 96-well plate in an amount of 0.1 ml per well, and the cells were cultured sterilely. After the cells were cultured for 2 days, the medium was exchanged with a fresh medium. The compound a derived from root portions of Angelica keiskei koidz. obtained in Example 1 was added thereto as a sample, and the cells were cultured for 3 days. Subsequently, differentiation of ST-2 cells into osteoblasts was measured using alkaline phosphatase as an index. The cells were washed once with PBS, 100 μl of a reaction substrate solution (100 mM diethanolamine buffer, pH 10.0, 2 mM magnesium chloride, 1 mM p-nitrophenyl phosphate) was added thereto, and the reaction was carried out at 37° C. for 30 minutes. Next, the reaction was terminated with adding 100 μl of 0.2 N sodium hydroxide, and the amount of p-nitrophenol which was released was determined by determining absorbance at 405 nm. The activity for induction of differentiation into osteoblasts was shown by setting a group without addition of the sample as a control, and defining alkaline phosphatase activity of the control as 100%. The experiments were carried out twice, and the average was taken.
Mouse embryonal cell strain C3H10T1/2 was suspended in DMEM medium containing 10% fetal bovine serum so as to have a concentration of 3×10^4 cells/ml. The suspension was put to a 96-well plate in an amount of 0.1 ml per well, and the cells were cultured sterilely. […] Subsequently, differentiation into osteoblasts was measured using alkaline phosphatase as an index in the same manner as in Example 2.
Mouse embryonal cell strain C3H10T1/2 was suspended in DMEM medium containing 10% fetal bovine serum so as to have a concentration of 3×10^4 cells/ml. […] Subsequently, differentiation into osteoblasts was measured using alkaline phosphatase activity as an index in the same manner as in Example 5.

For “Recombinant Human BMP-2: recombinant human BMP-2 (manufactured by GT)”, the “Alkaline Phosphatase Activity (%)” value came out at 379.6% (recombinant human BMP-2 500 ng/ml alone (water extract 0%)) and 687.1% (recombinant human BMP-2 1000 ng/ml alone (water extract 0%)). Where the note is “recombinant human BMP-2 alone”, the “Induction of differentiation into osteoblasts (in words)” value is given as “induces differentiation into osteoblasts in a concentration-dependent manner”.
